Article PMC6199744, “Development of Chemical Proteomics for the Folateome and Analysis of the Kinetoplastid Folateome” (ACS Infectious Diseases, 2018)

The chains behind the UniProt entries cited, without tags or fusion partners. Where a name states a change or a piece, a line headed by the entry shows the natural chain unless it says otherwise.
UniProt P07382: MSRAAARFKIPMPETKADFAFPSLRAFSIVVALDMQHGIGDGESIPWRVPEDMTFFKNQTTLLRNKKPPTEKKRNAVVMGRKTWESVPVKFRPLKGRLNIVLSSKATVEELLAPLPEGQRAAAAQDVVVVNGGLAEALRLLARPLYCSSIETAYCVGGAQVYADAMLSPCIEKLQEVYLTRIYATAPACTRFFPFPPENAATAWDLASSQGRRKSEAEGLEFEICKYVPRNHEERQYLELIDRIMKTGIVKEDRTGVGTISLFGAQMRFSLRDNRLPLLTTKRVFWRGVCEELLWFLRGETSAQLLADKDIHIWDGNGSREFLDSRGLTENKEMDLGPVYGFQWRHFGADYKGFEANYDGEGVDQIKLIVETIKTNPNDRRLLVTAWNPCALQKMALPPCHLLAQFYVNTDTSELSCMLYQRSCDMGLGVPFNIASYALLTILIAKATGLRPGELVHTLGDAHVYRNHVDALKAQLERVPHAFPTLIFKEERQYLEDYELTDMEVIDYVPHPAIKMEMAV

How the values were obtained:
[1] = target: T1, PTR1 (Leishmania major, UniProt Q01782); assay: biochemical; settings: read-out: % Inhibition of protein binding to bead, PTR-1, L. major
T1 sequence (Q01782 1-288): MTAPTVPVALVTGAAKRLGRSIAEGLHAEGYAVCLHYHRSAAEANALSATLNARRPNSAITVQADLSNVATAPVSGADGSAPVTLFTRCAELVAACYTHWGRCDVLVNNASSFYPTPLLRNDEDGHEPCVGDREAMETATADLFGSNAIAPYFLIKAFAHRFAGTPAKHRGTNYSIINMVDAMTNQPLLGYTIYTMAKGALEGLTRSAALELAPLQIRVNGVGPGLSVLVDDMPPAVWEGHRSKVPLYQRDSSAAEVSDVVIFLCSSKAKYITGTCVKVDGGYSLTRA

[2] = target: T2, DHFR-TS (Leishmania major, UniProt P07382); assay: biochemical; settings: read-out: % Inhibition of protein binding to bead, DHFR-TS, L. major
[3] = target: T1, PTR1; assay type: binding; set-up: endogenous in cells; host or cells: L. major Friedlin promastigote lysate; settings: bead mixture; L. major lysate
[4] = target: T2, DHFR-TS; assay type: binding; settings: bead mixture; L. major lysate

## CN(Cc1cnc2nc(N)nc(N)c2n1)c1ccc(C(=O)N[C@@H](CCC(=O)O)C(=O)O)cc1 [MTX, methotrexate]
[1]
  inhibition at 100 µM: 75%
[2]
  inhibition at 100 µM: 93%
[3]
  competition for PTR1 (Figure 8a): outcompeting for PTR1
[4]
  competition for DHFR-TS (Figure 8a): competed for DHFR-TS
